This is a selection; strong and weak results do not stand in their true shares. Activity calls are given as the source filed them.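 How the source made its calls: active means mutant luminescence inhibited past about 50% while wild type luminescence and mutant growth stay under set limits (limit read from the data); inconclusive means mutant versus wild type luminescence inhibition gap past a set limit; inactive means the rest.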
Assay: mutant yeast GCN4 reporter luminescence inhibitors – S. cerevisiae, eIF2B-epsilon R284H, Beta-Glo luminescence, primary screen (AID 688)
Settings: GCN4-lacZ luminescence, stronger effect = higher value, screened at 25 µM (by protocol)

| Compound | inhibition |
| --- | --- |
| O=C(OC1CN2CCC1CC2)c1cccc(Cl)c1 (configuration not stated) | inactive: 19.8% |
| O=P1(Nc2nc3ccc(Cl)cc3s2)COc2ccccc2O1 (configuration not stated) | inactive: 13.8% |
| Cc1c(NP(C)(=O)Oc2ccc(C(C)C)cc2)c(=O)n(-c2ccccc2)n1C (configuration not stated) | inactive: -46.3% |
| Cc1c2non([O-])c-2c(C)[n+](=O)[n+]1[O-] | inactive: 8.97% |
| Oc1ccccc1CNc1ccccn1 | inactive: 14.5% |
| COc1ccc(OP(C)(=O)Nc2ccccn2)cc1 (configuration not stated) | inactive: 22.9% |
| CN1CCCC(OC(=O)C(c2ccccc2)c2ccccc2)C1 (configuration not stated) | inactive: -17.4% |
| CC1CCN(C(=O)Oc2c(Cl)cc(Cl)c3cccnc23)CC1 | inactive: 31.3% |
| O=[N+]([O-])c1cccc2n[nH]nc12 | inactive: 18.5% |
| CCOP(C)(=S)SCC(=O)NC(C)C(=O)O (configuration not stated) | inactive: 7.15% |
| O=C(OC1CN2CCC1CC2)C12CC3CC(CC(C3)C1)C2 (configuration not stated) | inactive: 13% |
| Cc1ccc(NP(C)(=O)Oc2ccccc2)c(C)c1 (configuration not stated) | inactive: 22.8% |
| Cc1cc(C)cc(OP(C)(=O)Nc2ccccn2)c1 (configuration not stated) | inactive: 11.5% |
| CC1(CBr)Cn2c(nc3ccccc3c2=O)S1 (configuration not stated) | inactive: 33.4% |
| O=P1(Nc2ccc(Br)cn2)COc2ccccc2OC1 | inactive: 25.2% |
| O=P1(Nc2ncccn2)COc2ccccc2OC1 | inactive: 23.4% |
| COc1ccccc1OP(C)(=O)Nc1c(C)cccc1C (configuration not stated) | inactive: 11.9% |
